Measurements as given in US20230064189A1, “1H-PYRAZOLO[3,4-D]PYRIMIDINE COMPOUNDS USEFUL FOR THE TREATMENT OF PLATINUM-RESISTANT CANCER” (IMPERIAL COLLEGE INNOVATIONS LIMITED, priority 2019, published 2023).

Tested on: SKOV3 cells
Experiment: Phenotypic apoptosis assay (caspase 3/7 normalised to MTT) plus/minus cisplatin in SKOV3
Assay type: cell-based
Settings: inhibitor 6.67 μM + cisplatin 25 μM

**Q.** How did the “activity in phenotypic in vitro apoptosis platinum re-sensitisation assays” value turn out when `COc1ccc(O)c(C(=O)c2ccc(C(=O)N[C@@H]3CCCNC[C@H]3NC(=O)c3ccncc3)cc2)c1F` [Roche comp-4, N-{(3R,4R)-4-[4-(2-fluoro-6-hydroxy-3-methoxy-benzoyl)-benzoylamino]-azepan-3-yl}-isonicotinamide, reference compound] was run?
**A.** inactive
